{"source": "patent US9822179B2", "about": "“Recombinant TNF ligand family member polypeptides with antibody binding domain and uses therefor” (UNIVERSITAT STUTTGART, priority 2011, dated 2017)", "molecules": {"B1": {"name": "SEQ ID NO: 102: EGFR-specific VH-VL-scTRAIL fusion protein with linker L shortened to GGGGS; divalent, dimeric TRAIL fusion protein (protein)", "chain": "MDWTWRVFCLLAVAPGAHSLEASDYKDDDDKGAEVQLVESGGGLVQPGGSLRLSCAASGFSLTNYGVHWVRQAPGKGLEWLGVIWSGGNTDYNTPFTSRFTISRDNSKNTLYLQMNSLRAEDTAVYYCARALTYYDYEFAYWGQGTTVTVSSGGGGSDIQLTQSPSFLSASVGDRVTITCRASQSIGTNIHWYQQKPGKAPKLLIKYASESISGVPSRFSGSGSGTEFTLTISSLQPEDFATYYCQQNNNWPTTFGAGTKLEIKRAAAEFTRGTSEETISTVQEKQQNISPLVRERGPQRVAAHITGTRGRSNTLSSPNSKNEKALGRKINSWESSRSGHSFLSNLHLRNGELVIHEKGFYYIYSQTYFRFQEEIKENTKNDKQMVQYIYKYTSYPDPILLMKSARNSCWSKDAEYGLYSIYQGGIFELKENDRIFVSVTNEHLIDMDHEASFFGAFLVGGGGSGGGSTSEETISTVQEKQQNISPLVRERGPQRVAAHITGTRGRSNTLSSPNSKNEKALGRKINSWESSRSGHSFLSNLHLRNGELVIHEKGFYYIYSQTYFRFQEEIKENTKNDKQMVQYIYKYTSYPDPILLMKSARNSCWSKDAEYGLYSIYQGGIFELKENDRIFVSVTNEHLIDMDHEASFFGAFLVGGGGSGGGSTSEETISTVQEKQQNISPLVRERGPQRVAAHITGTRGRSNTLSSPNSKNEKALGRKINSWESSRSGHSFLSNLHLRNGELVIHEKGFYYIYSQTYFRFQEEIKENTKNDKQMVQYIYKYTSYPDPILLMKSARNSCWSKDAEYGLYSIYQGGIFELKENDRIFVSVTNEHLIDMDHEASFFGAFLVG", "modifications": "VH-VL(EGFR)-scTRAIL fusion protein"}}, "key": {"[1]": {"test_system": "Jurkat cells", "assay": "Target-independent induction of cell death, Jurkat, MTT assay", "type": "cell-based", "details": "not sensitized; SEQ ID NO: 102 compared to KillerTRAIL", "procedure": "Cell viability was determined using crystal violet staining. Results from four independent experiments are shown (mean±S.E.M.). (B) Jurkat cells (1×10^5/well) were used for a similar experiment as described in (A). Jurkat cells were not sensitized. Results from three independent experiments are shown (mean±S.E.M.). Viability of Jurkat cells was determined using the MTT assay.\n(§1) As a positive control, cells were killed with 0.25% Triton X-100. Cell death assays with Huh-7 and HepG2 cells were performed in the absence (FIG. 6, Jurkat cells) or presence of Bortezomib (FIG. 7, Huh-7: 250 ng/ml, FIG. 6, HepG2: 500 ng/ml, FIG. 18, Huh-7: 250 ng/ml), Selleck Chemicals, Houston, Tex.). Bortezomib was added 30 min prior incubation with the proapoptotic ligands to sensitize cells for the induction of cell death (FIGS. 6, 7). Alternatively, cells were preincubated for 30 min with the indicated concentrations of TRAIL fusion proteins followed by addition of serial dilutions of Bortezomib (FIG. 8). TRAIL only treated cells are shown in each panel for the applied TRAIL concentration (Bortezomib 0 ng/ml) (FIG. 8). After 16 h incubation, cell viability was determined either by crystal violet staining (Huh-7, HepG2) or the MTT method (Jurkat) (Wuest et al., 2002). In the latter case a lysis buffer consisting of 15% SDS in DMF/H2O (1:1), pH 4.5 (with […]) acetic acid) was used."}, "[2]": {"test_system": "EGFR+ Huh-7 hepatocellular carcinoma cells", "assay": "EGFR-directed induction of cell death in Huh-7 cells, serial dilutions of protein, crystal violet", "type": "cell-based", "details": "250 ng/ml Bortezomib", "procedure": "After 16 h, cell viability was determined using MTT staining (Colo 205) or crystal violet staining (Huh-7) and data were normalized using bortezomib-treated cells as control (mean SEM, n=3). (B) 1×10^4 Colo205 cells per well were grown in 96-well plates using medium with 0.1% FCS. […] (C) 1×10^4 Huh-7 cells per well were grown in 96-well plates and treated with 20 ng/ml bortezomib or with a combination of bortezomib and 10 μM zVADfmk.\nAfter 16 h, cell viability was determined using crystal violet staining. […] The values for SEQ ID NO: 102 were plotted in both panels for comparison.\nas §1"}, "[3]": {"test_system": "Huh-7 hepatocellular carcinoma cells", "assay": "Cell death in Huh-7 cells, constant protein concentration, serial dilutions of Bortezomib", "type": "cell-based", "procedure": "FIG. 8: EGFR-directed induction of cell death in Huh-7 hepatocellular carcinoma cells as in FIG. 7 with the exception that constant concentrations of the test proteins were used for preincubation (30 min), followed by addition of serial dilutions of Bortezomib. Control: Bortezomib alone. Results from three independent experiments are shown (mean±S.E.M.).\nas §1"}, "[4]": {"test_system": "EGFR+ Huh-7 cells", "assay": "Binding of scTRAIL fusion proteins to Huh-7 cells, flow cytometry with competition", "details": "2 μg/ml fusion protein", "procedure": "(§2) “scFv” represents an anti-EGFR specific antibody fragment used for competition.\n(§3) 5×10^5 cells were suspended in PBA buffer (PBS, 0.025% BSA, 0.02% sodium azide) and incubated for 1 h at 4° C. with the indicated scTRAIL fusion proteins (2 μg/ml). After washing the cells three times with PBA buffer, bound fusion proteins were detected by anti-human TRAIL mAb MAB687 (2.5 μg/ml, R&D Systems) and fluorescein isothiocyanate-labelled rabbit anti-mouse IgG Ab (1:200, Sigma-Aldrich), followed by three washing steps with PBA each. […] Expression of TRAIL receptors was detected by anti-TRAIL R1 mAb MAB347 and anti-TRAIL R2 mAb MAB6311 (4 μg/ml each, R&D Systems) in conjunction with anti-mouse IgG-FITC. EGFR expression was detected by a phycoerythrin-labelled anti-human EGFR mAb sc-101 (4 μg/ml, Santa Cruz Biotech., Santa Cruz, Calif.) (see FIG. 4)."}, "[5]": {"test_system": "EGFR low/neg. HepG2 cells", "assay": "Binding of scTRAIL fusion proteins to HepG2 cells, flow cytometry with competition", "details": "2 μg/ml fusion protein", "procedure": "as §2, §3"}, "[6]": {"assay": "Systemic tolerance in mice", "type": "in vivo", "details": "mouse models", "procedure": "FIG. 9: EGFR specific TRAIL fusion proteins lack hepatotoxic activity. Groups of 3 CD1 mice were treated intraperitonally with indicated fusion proteins or control reagents: negative control: PBS; positive control: aggregated FasL (CD95L) fusion protein. • (A) Plasma samples were prepared after 4 h and 24 h and the activity of alanine aminotransferase (ALT) was assayed using an enzymatic assay (Bioo Scientific, Austin, Tex.). Dashed line indicates upper normal level of ALT (physiologic range in adult human: 35-50 U/L). (B) Mice were sacrificed after 24 h except for positive control (animals treated with an aggregated FasL (CD95L) fusion protein show phenotypic signs of severe systemic toxicity after 2-4 hrs and die after ˜5 hrs, samples were taken after 4 hrs) and liver biopsies were taken for determination of caspase-3 activity using a specific AMC-coupled peptide substrate (Enzo Lifesciences, Lörrach, Germany).\n(§4) Dashed line indicates upper normal level of ALT (35-50 U/L). (B) Mice were sacrificed after 24 h except for pos. control (animals treated with an aggregated FasL fusion protein show phenotypic signs of severe systemic toxicity after 2-4 hrs and die after ˜5 hrs, samples were taken after 4 hrs) and liver biopsies were taken for determination of caspase-3 activity using a specific AMC-coupled peptide substrate."}, "[7]": {"assay": "Pharmacokinetics after iv dose of 100 μg/animal", "type": "in vivo", "details": "iv dose of 100 μg/animal", "procedure": "as §4"}, "[8]": {"test_system": "Huh-7 hepatocarcinoma cells", "assay": "Caspase activation in Huh-7 cells", "type": "cell-based", "details": "combination with bortezomib", "excerpt": "FIG. 14: In vitro tolerance of TRAIL fusion proteins to primary tissues. […] Asterisks indicate statistical significance.\nCaspases were detected by immunoblotting using a rabbit polyclonal antibody against cleaved caspase-3 (Cell Signaling Technology). GAPDH as internal control was detected with a rabbit polyclonal antibody (Cell Signaling Technology). HRP-conjugated secondary antibodies (Zymed Laboratories, San Fransisco, Calif., USA) and ECL were used for visualization.\nBlood samples were taken from the tail after 4 h and 24 h and incubated on ice. Clotted blood was centrifuged (10 000 g, 10 min, 4° C.) and serum samples were stored at −80° C. Activity of alanine aminotransaminase was determined by an enzymatic assay (BIOO Scientific, Austin, Tex., USA). To determine caspase-3 activity in the liver tissue, mice were sacrificed after 24 h (positive control after 5 h) and liver biopsies were taken. Homogenates were prepared in lysis buffer (200 mM NaCl, 20 mM Tris, 1% NP-40, pH 7.4). 10 μg of protein were analyzed by conversion of the fluorogenic substrate Ac-DMQD-AMC (Enzo Life Sciences). Caspase activity in PHH and Huh-7 cells was determined as published by Seidel et al. (Hepatology 2005, 42:113-120)."}, "[9]": {"details": "protein concentration of 0.05 nM"}}, "data": [{"molecule": "B1", "values": [{"measurement": "apoptosis-inducing activity on Jurkat cells", "setting": "[1]", "value": "higher apoptosis-inducing activity"}, {"measurement": "bioactivity in relation to SEQ ID NO: 96", "setting": "[2]", "value": "tenfold"}, {"measurement": "activity compared to other fusion proteins", "setting": "[3]; 0.01 nM of fusion proteins", "value": "Superior activity"}, {"measurement": "bioactivity compared to SEQ ID NO: 96", "setting": "[3]; [9]", "value": "higher bioactivity compared to SEQ ID NO: 96"}, {"measurement": "synergy with Bortezomib", "setting": "[3]; [9]", "value": "able to synergize with Bortezomib"}, {"measurement": "induction of apoptosis when sensitized with Bortezomib", "setting": "[3]; protein concentration of 1 nM and above", "value": "nearly equally efficient in induction of complete apoptosis"}, {"measurement": "binding to Huh-7 cells, competition by excess of anti-EGFR specific antibody fragment", "setting": "[4]", "value": "partially blockable"}, {"measurement": "binding to HepG2 cells, competition by anti-EGFR huC225", "setting": "[5]", "value": "weaker and non-blockable binding"}, {"measurement": "dose systemically well tolerated", "setting": "[6]", "value": "up to 3 mg/kg"}, {"measurement": "Tα1/2", "setting": "[7]", "value": 2, "unit": "h"}, {"measurement": "Tβ1/2", "setting": "[7]", "value": 3, "unit": "h"}, {"measurement": "plasma conc at t=24 h", "setting": "[7]", "value": 100, "unit": "ng/mL"}, {"measurement": "cleaved caspase-3 by immunoblot", "setting": "[8]", "value": "robust caspase processing"}]}]}
